In this experiment the test system is HL-1 cardiomyocytes, H2O2 injury, ATP luminescence, 2 h. Briefly: protection of HL-1 cardiomyocytes from peroxide injury, dose response, cell-based, ATP luminescence (AID 602215).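 Further: potency is for protection so actives raise ATP signal against peroxide damage.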

This is an account of results in PubChem BioAssay AID602215 (Sanford-Burnham Center for Chemical Genomics, 2012).

The structures appear in SMILES notation. Calls of active or inactive are those of the source.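 How the source made its calls: active means IC50 of 20 µM or lower; inactive means the rest.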

Turning to `NC(=O)c1ccsc1NC(=O)c1ccc([N+](=O)[O-])o1`, the IC50 is inactive: > 79 µM.

For orientation: IC50 means the concentration that gives 50% inhibition.
